In patent US20260271928A1, “CONTROL OF PESTS RESISTANT TO INSECTICIDES” (Syngenta Crop Protection Ag, priority 2023, published 2026):

What was measured:
[1] = test system: Resistant Plutella xylostella; assay: Resistant Plutella xylostella (rPLU); type: in vivo; conditions: collected 2013, Changhua, Taiwan
Protocol: Chinese cabbage plants were treated with the diluted test solutions in a spray chamber. After drying, the leaves were cut off and placed in petri dishes with wetted filter paper. One day after treatment, the leaves were infested with 10 Plutella xylostella larvae (L3). Samples were assessed 4 days after infestation for mortality and growth regulation.
Resistant Plutella xylostella (rPLU)
A number of target-sites mutations were identified in this strain which confer resistance to pyrethroids (L1014F, T929I), organophosphates and carbamates (mAChE: A298S and G324A), and organochlorines (rdl: A298S), and diamides (ryr: G4546E).

[2] = test system: Resistant Nilaparvata lugens; assay: Resistant Nilaparvata lugens (rNIL); type: in vivo; conditions: collected 2005, Karnataka, India
Protocol: Rice plants were treated with the diluted test solutions in a spray chamber. After drying, plants were infested with ~20 Nilaparvata lugens nymphs (N5). 7 days after the treatment samples were assessed for mortality. The adults were then removed and 15 days after the treatment samples were assessed for effect on F1 generation.
Resistant Nilaparvata lugens (rNIL)
Originally collected from Hosa-Hally, Karnataka district, India in 2005.

Row | Compound | resistance of the rPLU strain to the insecticide [1] [fold] | resistance of the rNIL strain to the insecticide [2] [fold]
1 | CNC(=O)c1cc(Cl)cc(C)c1NC(=O)c1cc(Br)nn1-c1ncccc1Cl [Chlorantraniliprole] | 1500 | –
2 | CNC(=O)c1cc(C#N)cc(C)c1NC(=O)c1cc(Br)nn1-c1ncccc1Cl [Cyantraniliprole] | 300 | –
3 | CN/C(=N/CC1CCOC1)N[N+](=O)[O-] (centres unmarked) [Dinotofuran] | – | 30
4 | N#Cc1nn(-c2c(Cl)cc(C(F)(F)F)cc2Cl)c(N)c1[S+]([O-])C(F)(F)F (centres unmarked) [Fipronil] | 300 | –
5 | O=[N+]([O-])NC1=NCCN1Cc1ccc(Cl)nc1 [Imidacloprid] | – | 5000
